For one test, the species on record is Homo sapiens. The conditions noted are these: time 90.0 sec.
The subject of another test is HCT-116. Briefly: cells. The conditions noted are these: Homo sapiens, HCT-116, 72 h.
Test [1] has as its target Histone-lysine N-methyltransferase EZH2 (Homo sapiens, UniProt Q15910).

Amino acid sequences for entries named in this document (tags omitted).
UniProt Q15910, whole entry: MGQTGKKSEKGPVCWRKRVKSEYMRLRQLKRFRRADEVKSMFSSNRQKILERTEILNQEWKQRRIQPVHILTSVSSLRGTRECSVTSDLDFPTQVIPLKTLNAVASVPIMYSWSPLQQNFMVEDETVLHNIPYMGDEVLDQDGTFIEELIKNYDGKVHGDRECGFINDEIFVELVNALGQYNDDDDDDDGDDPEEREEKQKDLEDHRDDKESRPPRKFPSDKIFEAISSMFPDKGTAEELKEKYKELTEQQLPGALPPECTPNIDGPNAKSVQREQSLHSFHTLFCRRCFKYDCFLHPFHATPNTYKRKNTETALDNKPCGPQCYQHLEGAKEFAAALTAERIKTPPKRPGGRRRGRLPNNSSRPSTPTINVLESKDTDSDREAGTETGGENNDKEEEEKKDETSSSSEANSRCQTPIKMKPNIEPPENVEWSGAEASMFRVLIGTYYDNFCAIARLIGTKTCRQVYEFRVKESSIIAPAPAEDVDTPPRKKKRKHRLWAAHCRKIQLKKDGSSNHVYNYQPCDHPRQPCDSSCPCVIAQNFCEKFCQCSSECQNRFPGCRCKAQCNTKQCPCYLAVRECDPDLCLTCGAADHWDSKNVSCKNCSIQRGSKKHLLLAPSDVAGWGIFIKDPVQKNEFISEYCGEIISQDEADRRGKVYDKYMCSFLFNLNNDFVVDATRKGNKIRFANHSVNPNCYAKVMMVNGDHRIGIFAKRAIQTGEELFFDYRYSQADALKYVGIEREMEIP

Structures are written as SMILES. Where only a bound is given, the exact number is not on record here.

Regarding `CC[C@@H](C)n1cc(C)c2c(C(=O)NCc3c(C)cc(C)[nH]c3=O)cc(-c3ccc(N4CCN(CCCCCCCCC(=O)NO)CC4)nc3)cc21`, the Ka in the test listed under Homo sapiens is 1.04 10^5/M/s. On to `C=C(CCCCCNc1cc(-c2ccc(N3CCN(C(=O)OC(C)(C)C)CC3)nc2)cc(C(=O)NCc2c(C)cc(C)[nH]c2=O)c1C)NO`, for which the Ka in the test listed under Homo sapiens is 5.43 10^5/M/s.

In the test on HCT-116, `Cc1cc(C)c(CNC(=O)c2cc(-c3ccc(N4CCN(Cc5ccc(C(=O)NO)cc5)CC4)nc3)cc3c2cnn3C(C)C)c(=O)[nH]1` yielded an IC50 of over 20000 nM. The Ka in the test listed under Homo sapiens was 1.16 10^5/M/s. In the case of `Cc1cc(C)c(CNC(=O)c2cc(-c3ccc(N4CCN(C(=O)OC(C)(C)C)CC4)nc3)cc(NCCCCCCC(=O)NO)c2C)c(=O)[nH]1`, the Ka in the test filed under Homo sapiens was 1.75 10^4/M/s. Take `Cc1cc(C)c(CNC(=O)c2cc(-c3ccc(N4CCN(CCCCCCCCC(=O)NO)CC4)nc3)cc3c2cnn3C(C)C)c(=O)[nH]1`: the Ka in the test listed under Homo sapiens is 4.83 10^5/M/s. With `Cc1cc(C)c(CNC(=O)c2cc(-c3ccc(N4CCN(C(=O)OC(C)(C)C)CC4)nc3)cc(NCCCCCCCC(=O)NO)c2C)c(=O)[nH]1`, the Ka in the test filed under Homo sapiens was 7.25 10^4/M/s.

As to `Cc1cc(C)c(CNC(=O)c2cc(-c3ccc(NC(=O)CCCCCCC(=O)NO)cc3)cc3c2cnn3C(C)C)c(=O)[nH]1`, in the test filed under Homo sapiens, the Ka was 1.19 10^5/M/s. `CCN(c1cc(-c2ccc(N3CCN(CCCCCCCCC(=O)NO)CC3)nc2)cc(C(=O)NCc2c(C)cc(C)[nH]c2=O)c1C)C1CCOCC1`: the Ka in the test listed under Homo sapiens was 1.01 10^5/M/s. On to `CC[C@@H](C)n1cc(C)c2c(C(=O)NCc3c(C)cc(C)[nH]c3=O)cc(-c3ccc(N4CCN(c5ncc(C(=O)NO)cn5)CC4)nc3)cc21`, for which, in the test listed under Homo sapiens, the Ka was 2.66 10^5/M/s. For the compound `Cc1cc(C)c(CNC(=O)c2cc(-c3ccc(N4CCN(Cc5ccc(C(=O)NO)o5)CC4)nc3)cc3c2cnn3C(C)C)c(=O)[nH]1`, in the test listed under Homo sapiens, the Ka was 1.03 10^5/M/s. Take `Cc1cc(C)c(CNC(=O)c2cc(-c3ccc(N4CCN(C(=O)CCCCCCC(=O)NO)CC4)nc3)cc3c2cnn3C(C)C)c(=O)[nH]1`: in the test filed under Homo sapiens, the Ka was 2.72 10^5/M/s. In the case of `Cc1cc(C)c(CNC(=O)c2cc(-c3ccc(N4CCN(C(=O)OC(C)(C)C)CC4)nc3)cc(NCCCCC(=O)NO)c2C)c(=O)[nH]1`, the Ka in the test listed under Homo sapiens is 2.02 10^5/M/s. For the compound `CCN(c1cc(-c2ccc(N3CCN(c4ncc(C(=O)NO)cn4)CC3)nc2)cc(C(=O)NCc2c(C)cc(C)[nH]c2=O)c1C)C1CCOCC1`, in the test filed under Homo sapiens, the Ka was 8.71 10^4/M/s. Consider `Cc1cc(C)c(CNC(=O)c2cc(-c3ccc(N4CCN(C(C)C)CC4)nc3)cc3c2cnn3C(C)C)c(=O)[nH]1`, for which the midpoint of inhibition in test [1], the IC50, lay at 30 nM. The Ka in the test listed under Homo sapiens was 6.43 10^5/M/s.

By IC50 is commonly meant the concentration at which inhibition is half-maximal. The low end stands for greater potency in that assay, the high end for weaker potency in that assay.

The record behind these values is ChEMBL document CHEMBL5108052, “Histone Deacetylase and Enhancer of Zeste Homologue 2 Dual Inhibitors Presenting a Synergistic Effect for the Treatment of Hematological Malignancies” (J Med Chem, 2022).
